Measurements as given in patent publication US20250179057A1, “MEK IMMUNE ONCOLOGY INHIBITORS AND THERAPEUTIC USES THEREOF” (Immuneering Corporation, priority 2022, published 2025).

By UniProt entry, the sequences of proteins in these tests, tags left out.
UniProt Q12809, whole entry: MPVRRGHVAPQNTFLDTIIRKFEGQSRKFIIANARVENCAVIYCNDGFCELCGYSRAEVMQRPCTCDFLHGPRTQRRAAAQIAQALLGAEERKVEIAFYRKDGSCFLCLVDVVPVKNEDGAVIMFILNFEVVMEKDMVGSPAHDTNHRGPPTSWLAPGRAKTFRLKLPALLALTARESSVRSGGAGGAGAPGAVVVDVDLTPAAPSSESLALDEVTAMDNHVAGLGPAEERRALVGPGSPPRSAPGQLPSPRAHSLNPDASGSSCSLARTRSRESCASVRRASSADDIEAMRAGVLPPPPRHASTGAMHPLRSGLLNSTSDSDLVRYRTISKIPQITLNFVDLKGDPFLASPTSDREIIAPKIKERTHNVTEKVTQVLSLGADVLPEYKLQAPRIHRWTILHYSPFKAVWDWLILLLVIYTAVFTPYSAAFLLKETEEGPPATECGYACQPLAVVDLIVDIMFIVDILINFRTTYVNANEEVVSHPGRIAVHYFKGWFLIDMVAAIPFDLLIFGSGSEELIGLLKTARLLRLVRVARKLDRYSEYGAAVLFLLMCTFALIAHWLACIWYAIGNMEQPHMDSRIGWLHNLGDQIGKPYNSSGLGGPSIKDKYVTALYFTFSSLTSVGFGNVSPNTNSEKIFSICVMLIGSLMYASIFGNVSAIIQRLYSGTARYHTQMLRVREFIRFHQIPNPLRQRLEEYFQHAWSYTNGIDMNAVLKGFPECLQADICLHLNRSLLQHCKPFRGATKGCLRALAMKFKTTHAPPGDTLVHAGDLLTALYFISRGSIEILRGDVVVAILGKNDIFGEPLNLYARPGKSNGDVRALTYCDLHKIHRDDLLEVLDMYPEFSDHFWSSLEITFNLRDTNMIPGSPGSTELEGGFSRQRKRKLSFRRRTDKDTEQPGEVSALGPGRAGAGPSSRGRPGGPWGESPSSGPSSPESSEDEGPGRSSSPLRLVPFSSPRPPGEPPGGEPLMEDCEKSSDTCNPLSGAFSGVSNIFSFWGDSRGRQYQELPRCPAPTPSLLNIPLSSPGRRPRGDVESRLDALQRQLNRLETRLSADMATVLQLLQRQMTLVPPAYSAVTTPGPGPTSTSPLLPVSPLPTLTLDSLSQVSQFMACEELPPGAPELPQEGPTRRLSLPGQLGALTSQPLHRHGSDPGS
UniProt P11712, whole entry: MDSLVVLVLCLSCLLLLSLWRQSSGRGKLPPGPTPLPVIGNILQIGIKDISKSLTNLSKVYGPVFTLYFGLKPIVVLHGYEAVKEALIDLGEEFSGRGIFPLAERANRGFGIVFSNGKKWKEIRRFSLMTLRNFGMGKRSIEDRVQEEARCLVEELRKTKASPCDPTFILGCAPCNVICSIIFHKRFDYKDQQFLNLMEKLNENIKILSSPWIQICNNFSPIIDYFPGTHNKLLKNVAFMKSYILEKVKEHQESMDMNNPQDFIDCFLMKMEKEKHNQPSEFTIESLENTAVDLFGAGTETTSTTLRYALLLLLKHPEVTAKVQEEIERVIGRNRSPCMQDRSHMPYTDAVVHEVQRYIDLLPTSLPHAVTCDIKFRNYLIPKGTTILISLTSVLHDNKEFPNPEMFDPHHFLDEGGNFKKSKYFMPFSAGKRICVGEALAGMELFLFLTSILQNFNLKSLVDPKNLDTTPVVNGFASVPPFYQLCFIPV
UniProt P05177, whole entry: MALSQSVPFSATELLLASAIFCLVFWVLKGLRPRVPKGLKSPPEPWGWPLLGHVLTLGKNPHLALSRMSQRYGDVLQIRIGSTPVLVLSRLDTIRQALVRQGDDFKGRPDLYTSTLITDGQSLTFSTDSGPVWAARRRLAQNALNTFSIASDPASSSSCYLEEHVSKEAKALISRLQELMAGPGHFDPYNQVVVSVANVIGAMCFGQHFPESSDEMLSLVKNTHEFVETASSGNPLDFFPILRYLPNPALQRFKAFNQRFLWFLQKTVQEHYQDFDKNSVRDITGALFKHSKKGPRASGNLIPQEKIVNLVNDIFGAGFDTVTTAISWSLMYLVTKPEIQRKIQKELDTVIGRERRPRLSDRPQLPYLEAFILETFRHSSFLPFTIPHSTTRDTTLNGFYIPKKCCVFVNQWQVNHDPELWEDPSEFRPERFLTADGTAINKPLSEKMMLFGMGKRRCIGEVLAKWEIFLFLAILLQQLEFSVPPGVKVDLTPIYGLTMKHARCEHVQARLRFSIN
UniProt P10635, whole entry: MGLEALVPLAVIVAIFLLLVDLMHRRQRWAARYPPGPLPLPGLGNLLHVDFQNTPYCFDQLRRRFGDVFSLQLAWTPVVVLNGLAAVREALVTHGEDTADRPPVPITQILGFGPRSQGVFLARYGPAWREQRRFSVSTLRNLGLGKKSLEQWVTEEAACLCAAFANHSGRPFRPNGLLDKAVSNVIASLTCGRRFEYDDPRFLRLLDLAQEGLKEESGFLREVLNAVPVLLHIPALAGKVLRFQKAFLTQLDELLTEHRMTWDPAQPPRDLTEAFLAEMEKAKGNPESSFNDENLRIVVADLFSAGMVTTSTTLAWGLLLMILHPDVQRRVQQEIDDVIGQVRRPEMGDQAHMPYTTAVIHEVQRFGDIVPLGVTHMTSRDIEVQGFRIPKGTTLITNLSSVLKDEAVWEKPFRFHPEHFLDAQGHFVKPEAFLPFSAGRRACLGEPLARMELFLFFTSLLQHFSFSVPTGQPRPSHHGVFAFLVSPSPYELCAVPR
UniProt P20813, whole entry: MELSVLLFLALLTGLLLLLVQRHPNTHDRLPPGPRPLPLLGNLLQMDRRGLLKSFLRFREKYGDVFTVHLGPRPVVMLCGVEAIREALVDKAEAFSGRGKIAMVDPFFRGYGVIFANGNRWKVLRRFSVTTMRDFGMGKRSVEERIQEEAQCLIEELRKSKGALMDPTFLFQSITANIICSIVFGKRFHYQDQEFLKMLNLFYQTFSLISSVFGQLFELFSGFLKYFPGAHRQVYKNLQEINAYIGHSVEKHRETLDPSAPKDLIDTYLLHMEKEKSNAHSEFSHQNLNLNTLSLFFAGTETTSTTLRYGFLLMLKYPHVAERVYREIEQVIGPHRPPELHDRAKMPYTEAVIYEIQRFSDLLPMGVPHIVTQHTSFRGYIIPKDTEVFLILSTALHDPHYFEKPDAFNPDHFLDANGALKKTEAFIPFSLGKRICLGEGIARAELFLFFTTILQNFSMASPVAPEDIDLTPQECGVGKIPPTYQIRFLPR
UniProt P10632, whole entry: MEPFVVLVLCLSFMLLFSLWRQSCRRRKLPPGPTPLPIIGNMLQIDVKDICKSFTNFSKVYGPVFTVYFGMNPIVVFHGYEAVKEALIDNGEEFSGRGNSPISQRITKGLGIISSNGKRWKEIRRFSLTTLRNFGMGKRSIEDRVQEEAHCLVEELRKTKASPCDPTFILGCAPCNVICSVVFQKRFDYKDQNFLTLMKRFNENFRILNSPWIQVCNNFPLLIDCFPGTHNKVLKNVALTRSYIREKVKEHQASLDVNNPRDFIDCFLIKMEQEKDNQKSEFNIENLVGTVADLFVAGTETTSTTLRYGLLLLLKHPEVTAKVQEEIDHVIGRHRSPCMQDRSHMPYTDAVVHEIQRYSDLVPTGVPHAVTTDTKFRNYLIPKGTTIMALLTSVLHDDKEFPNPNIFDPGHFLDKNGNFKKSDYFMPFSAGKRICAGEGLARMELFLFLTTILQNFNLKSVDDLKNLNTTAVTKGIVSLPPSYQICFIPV
UniProt P08684, whole entry: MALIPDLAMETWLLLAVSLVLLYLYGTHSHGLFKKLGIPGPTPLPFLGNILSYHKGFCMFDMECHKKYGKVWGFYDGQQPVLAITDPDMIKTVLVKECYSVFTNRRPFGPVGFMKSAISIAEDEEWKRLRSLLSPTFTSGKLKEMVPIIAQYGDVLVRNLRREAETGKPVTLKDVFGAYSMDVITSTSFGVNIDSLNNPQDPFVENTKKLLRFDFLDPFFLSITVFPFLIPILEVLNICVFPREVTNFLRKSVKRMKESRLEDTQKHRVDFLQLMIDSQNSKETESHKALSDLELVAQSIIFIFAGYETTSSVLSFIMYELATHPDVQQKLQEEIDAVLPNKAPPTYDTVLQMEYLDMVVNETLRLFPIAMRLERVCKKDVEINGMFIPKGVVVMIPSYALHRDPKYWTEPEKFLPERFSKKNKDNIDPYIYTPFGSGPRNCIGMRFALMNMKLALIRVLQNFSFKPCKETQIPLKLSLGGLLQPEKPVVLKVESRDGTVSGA
UniProt P33261, whole entry: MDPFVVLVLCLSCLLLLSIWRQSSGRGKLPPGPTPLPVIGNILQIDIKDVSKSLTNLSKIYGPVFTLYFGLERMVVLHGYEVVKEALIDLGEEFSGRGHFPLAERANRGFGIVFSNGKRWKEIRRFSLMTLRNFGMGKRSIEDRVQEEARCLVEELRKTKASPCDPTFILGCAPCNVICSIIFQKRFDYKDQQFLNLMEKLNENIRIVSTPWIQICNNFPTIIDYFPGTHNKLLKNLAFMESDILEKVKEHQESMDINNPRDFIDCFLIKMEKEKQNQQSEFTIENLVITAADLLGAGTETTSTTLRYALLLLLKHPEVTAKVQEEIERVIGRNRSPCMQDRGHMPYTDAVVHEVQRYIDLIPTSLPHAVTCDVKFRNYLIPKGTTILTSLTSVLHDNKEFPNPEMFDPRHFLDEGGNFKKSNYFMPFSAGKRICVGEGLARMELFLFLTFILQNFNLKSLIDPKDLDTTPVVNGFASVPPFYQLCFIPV

Tests used:
[1] = Mouse pharmacokinetics (oral cassette dosing), plasma; details: BALB/c immunocompetent mice, 5 mg/kg p.o.
[2] = system: cynomolgus monkey hepatocytes; assay: Hepatocyte stability, cynomolgus monkey; type: in vitro ADME; details: 2 μM, 0.5 million cells/ml
[3] = Plasma stability, rat plasma (Wistar Han / wistar hannover; Table 5 head SD Rat); type: in vitro ADME; details: 2 μM, anti-coagulant K2-EDTA; for % Remaining at T120: 120 min
[4] = Plasma stability, mouse plasma (Balb/c; Table 5 head CD-1 Mouse); type: in vitro ADME; details: 2 μM, anti-coagulant K2-EDTA; for % Remaining at T120: 120 min
[5] = Plasma stability, beagle dog plasma (K2EDTA); type: in vitro ADME; details: 2 μM, anti-coagulant K2-EDTA; for % Remaining at T120: 120 min
[6] = Plasma stability, human plasma (K2EDTA); type: in vitro ADME; details: 2 μM, anti-coagulant K2-EDTA; for T1/2: 10 to 120 min; for % Remaining at T120: 120 min
[7] = system: balb/c mouse hepatocytes; assay: Hepatocyte stability, balb/c mouse; type: in vitro ADME; details: 2 μM, 0.5 million cells/ml
[8] = target: hERG channel (Homo sapiens, UniProt Q12809); details: read-out: IC50 (μM), hERG ion channel block; Example 46; 5 min exposure per concentration
[9] = target: CYP2C9 (Homo sapiens, UniProt P11712); assay: CYP450 panel inhibition in human liver microsomes, 2C9 (diclofenac); details: 10 μM, substrate diclofenac
[10] = target: CYP1A2 (Homo sapiens, UniProt P05177); assay: CYP450 panel inhibition in human liver microsomes, 1A2 (phenacetin); details: 10 μM, substrate phenacetin
[11] = system: human hepatocytes; assay: Hepatocyte stability, human; type: in vitro ADME; details: 2 μM, 0.5 million cells/ml; for % Remaining At T120 / T1/2: 120 min
[12] = system: beagle dog hepatocytes; assay: Hepatocyte stability, beagle dog; type: in vitro ADME; details: 2 μM, 0.5 million cells/ml
[13] = Plasma stability, cynomolgus monkey plasma (K2-EDTA); details: 2 μM, anti-coagulant K2-EDTA; for % Remaining at T120: 120 min
[14] = Kinetic solubility (PBS pH 7.4; 4 hr); details: free base (Table 19)
[15] = target: CYP2D6 (Homo sapiens, UniProt P10635); assay: CYP450 panel inhibition in human liver microsomes, 2D6 (dextromethorphan); details: 10 μM, substrate dextromethorphan
[16] = system: wistar hannover rat hepatocytes; assay: Hepatocyte stability, wistar hannover rat; type: in vitro ADME; details: 2 μM, 0.5 million cells/ml
[17] = target: CYP2B6 (Homo sapiens, UniProt P20813); assay: CYP450 panel inhibition in human liver microsomes, 2B6 (bupropion); details: 10 μM, substrate bupropion
[18] = target: CYP2C8 (Homo sapiens, UniProt P10632); assay: CYP450 panel inhibition in human liver microsomes, 2C8 (amodiaquine); details: 10 μM, substrate amodiaquine
[19] = target: CYP3A4 (Homo sapiens, UniProt P08684); assay: CYP450 panel inhibition in human liver microsomes, 3A4 (midazolam / testosterone); details: 10 μM; for CYP-3A4 (Midazolam) mean percentage CYP inhibition: substrate midazolam; for CYP-3A4 (Testosterone) mean percentage CYP inhibition: substrate testosterone
[20] = target: CYP2C19 (Homo sapiens, UniProt P33261); assay: CYP450 panel inhibition in human liver microsomes, 2C19 (mephenytoin); details: 10 μM, substrate mephenytoin
[21] = system: Caco-2 cells; assay: Caco-2 bidirectional permeability (absorption & efflux); details: Example 47

For CCCS(=O)(=O)Nc1cccc(Cc2c(CN(C)CC)c3cc(Cl)c(OC(=O)N(C)C)cc3oc2=O)c1F, the “AUC0-t” value [1] was 416 ng·h/mL, the “AUC0-∞” value [1] was 434 ng·h/mL and the “Cmax” value [1] was 857 ng/mL. The “T1/2” value [1] was 0.9 h, the “Tmax” value [1] was 0.083 h and the “% Remaining At T120” value [2] was 13.7%. The “CLint (L/hr/kg)” value [2] was 8.05 L/h/kg, the “CLint (mL/min/kg)” value [2] was 134 mL/min/kg and the “T1/2” value [2] was 0.697 h. For the same compound, the “T1/2” value [3] was 142 h, the “% Remaining at T120” value [3] was 98.1% and the “T1/2” value [4] was 5.28 h. The “% Remaining at T120” value [4] was 74.9%, the “T1/2” value [5] was greater than 2 h and the “% Remaining at T120” value [5] was 102.6%. For the same compound, the “T1/2” value [6] was 59.02 h, the “% Remaining at T120” value [6] was 97.0% and the “% Remaining At T120” value [7] was 56.0%. For the same compound, the “CLint (L/hr/kg)” value [7] was 6.86 L/h/kg, the “CLint (mL/min/kg)” value [7] was 114 mL/min/kg and the “T1/2” value [7] was 2.38 h. For the same compound, the IC50 [8] was 5.6 µM, the “CYP-2C9 (Diclofenac) mean percentage CYP inhibition” value [9] was 17.1% and the “CYP-1A2 (Phenacetin) mean percentage CYP inhibition” value [10] was −3.1%. For the same compound, the “CLint (L/hr/kg)” value [11] was 3.06 L/h/kg, the “CLint (mL/min/kg)” value [11] was 51.0 mL/min/kg and the “% Remaining At T120” value [11] was 32.2%. For the same compound, the “T1/2” value [11] was 1.22 h, the “% Remaining At T120” value [12] was 41.9% and the “CLint (L/hr/kg)” value [12] was 4.68 L/h/kg. For the same compound, the “CLint (mL/min/kg)” value [12] was 78.0 mL/min/kg, the “T1/2” value [12] was 1.59 h and the “T1/2” value [13] was greater than 2 h. The “% Remaining at T120” value [13] was 98.4%, the “Kinetic Solubility” value [14] was greater than 80 µM and the “CYP-2D6 (Dextromethorphan) mean percentage CYP inhibition” value [15] was 8.3%. The “% Remaining At T120” value [16] was 27.9%, the “CLint (L/hr/kg)” value [16] was 3.44 L/h/kg and the “CLint (mL/min/kg)” value [16] was 57.4 mL/min/kg. The “T1/2” value [16] was 1.09 h, the “CYP-2B6 (Bupropion) mean percentage CYP inhibition” value [17] was −2.3% and the “CYP-2C8 (Amodiaquine) mean percentage CYP inhibition” value [18] was 7.1%. The “CYP-3A4 (Midazolam) mean percentage CYP inhibition” value [19] was 13.5%, the “CYP-3A4 (Testosterone) mean percentage CYP inhibition” value [19] was 38.8% and the “CYP-2C19 (Mephenytoin) mean percentage CYP inhibition” value [20] was 19.1%. The “A − B Permeability Ranking” value [21] was “Higher”, the “Mean Papp A − B (10^−6 cm/s)” value [21] was 20.5 10^−6 cm/s and the “Mean Papp B − A (10^−6 cm/s)” value [21] was 16.7 10^−6 cm/s.

For CNS(=O)(=O)Nc1cccc(Cc2c(CN3CC(F)(F)C3)c3ccc(OC(=O)N(C)C)cc3oc2=O)c1F, the “AUC0-t” value [1] was 23.2 ng·h/mL, the “Cmax” value [1] was 4.9 ng/mL and the “Tmax” value [1] was 0.5 h. The “% Remaining At T120” value [2] was 74.0%, the “CLint (L/hr/kg)” value [2] was 1.22 L/h/kg and the “CLint (mL/min/kg)” value [2] was 20.3 mL/min/kg. For the same compound, the “T1/2” value [2] was 4.6 h, the “T1/2” value [3] was 65.68 h and the “% Remaining at T120” value [3] was 97.9%. For the same compound, the “T1/2” value [4] was 12.4 h, the “% Remaining at T120” value [4] was 89.8% and the “T1/2” value [5] was 59 h. The “% Remaining at T120” value [5] was 95.0%, the “T1/2” value [6] was greater than 2 h and the “% Remaining at T120” value [6] was 95.4%. For the same compound, the “% Remaining At T120” value [7] was 74.4%, the “CLint (L/hr/kg)” value [7] was 3.50 L/h/kg and the “CLint (mL/min/kg)” value [7] was 58.3 mL/min/kg. The “T1/2” value [7] was 4.68 h, the IC50 [8] was 13.1 µM and the “CYP-2C9 (Diclofenac) mean percentage CYP inhibition” value [9] was 32.0%. The “CYP-1A2 (Phenacetin) mean percentage CYP inhibition” value [10] was 8.2%, the “CLint (L/hr/kg)” value [11] was 0.106 L/h/kg and the “CLint (mL/min/kg)” value [11] was 1.77 mL/min/kg. For the same compound, the “% Remaining At T120” value [11] was 96.2%, the “T1/2” value [11] was 35.33 h and the “% Remaining At T120” value [12] was 52.1%. For the same compound, the “CLint (L/hr/kg)” value [12] was 3.50 L/h/kg, the “CLint (mL/min/kg)” value [12] was 58.4 mL/min/kg and the “T1/2” value [12] was 2.13 h. For the same compound, the “T1/2” value [13] was 10 h, the “% Remaining at T120” value [13] was 89.2% and the “Kinetic Solubility” value [14] was greater than 80 µM. The “CYP-2D6 (Dextromethorphan) mean percentage CYP inhibition” value [15] was 11.1%, the “% Remaining At T120” value [16] was 48.6% and the “CLint (L/hr/kg)” value [16] was 1.95 L/h/kg. For the same compound, the “CLint (mL/min/kg)” value [16] was 32.5 mL/min/kg, the “T1/2” value [16] was 1.92 h and the “CYP-2B6 (Bupropion) mean percentage CYP inhibition” value [17] was 2.0%. The “CYP-2C8 (Amodiaquine) mean percentage CYP inhibition” value [18] was 59.6%, the “CYP-3A4 (Midazolam) mean percentage CYP inhibition” value [19] was 28.4% and the “CYP-3A4 (Testosterone) mean percentage CYP inhibition” value [19] was 32.0%. For the same compound, the “CYP-2C19 (Mephenytoin) mean percentage CYP inhibition” value [20] was 36.9%, the “A − B Permeability Ranking” value [21] was “Lower” and the “Mean Papp A − B (10^−6 cm/s)” value [21] was 0.240 10^−6 cm/s. The “Mean Papp B − A (10^−6 cm/s)” value [21] was 8.54 10^−6 cm/s.
